{"sequences": {"note": "Chains of the proteins cited; added tags and fusions are not shown. Lines headed by an entry give the natural chain unless they say otherwise; changes in a name come on top.", "UniProt P31751": "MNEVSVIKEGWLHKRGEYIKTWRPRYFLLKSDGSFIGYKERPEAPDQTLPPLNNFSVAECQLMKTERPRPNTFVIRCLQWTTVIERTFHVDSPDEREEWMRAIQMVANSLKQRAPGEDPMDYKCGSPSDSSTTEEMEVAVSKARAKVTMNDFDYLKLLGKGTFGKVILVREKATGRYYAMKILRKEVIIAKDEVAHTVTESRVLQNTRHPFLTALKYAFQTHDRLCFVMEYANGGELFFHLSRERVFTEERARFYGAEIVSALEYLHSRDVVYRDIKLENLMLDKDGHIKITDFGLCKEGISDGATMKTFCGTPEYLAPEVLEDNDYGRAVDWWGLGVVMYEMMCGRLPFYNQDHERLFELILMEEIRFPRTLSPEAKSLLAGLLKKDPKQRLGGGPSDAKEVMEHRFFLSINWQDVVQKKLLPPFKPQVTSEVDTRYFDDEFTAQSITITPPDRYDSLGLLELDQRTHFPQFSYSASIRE"}, "source": "patent US8987273B2", "about": "“Substituted imidazo[1,2-B]pyridazines” (Bayer Intellectual Property GmbH, priority 2010, dated 2015)", "target": "His-tagged human recombinant kinase full-length Akt2 (Homo sapiens (Human), UniProt P31751)", "assay": "Akt2 kinase assay (TR-FRET)", "type": "biochemical", "settings": "10 μM ATP; median", "text": "Akt2 inhibitory activity of compounds of the present invention was quantified employing the Akt2 TR-FRET assay as described in the following paragraphs.\nHis-tagged human recombinant kinase full-length Akt2 expressed in insect cells and activated by PDK1 was purchased form Invitrogen (part number PV 3975). As substrate for the kinase reaction the biotinylated peptide biotin-Ahx-[…] (C-terminus in amide form) was used which can be purchased e.g. from the company Biosynthan GmbH (Berlin-Buch, Germany). […]\nThe resulting mixture was incubated 1 h at 22° C. to allow the binding of the biotinylated phosphorylated peptide to the streptavidine-XL665 and the antibodies. Subsequently the amount of phosphorylated substrate was evaluated by measurement of the resonance energy transfer from the anti-mouse-IgG-Eu-Chelate to the streptavidine-XL665. Therefore, the fluorescence emissions at 620 nm and 665 nm after excitation at 350 nm was measured in a TR-FRET reader, e.g. a Rubystar (BMG Labtechnologies, Offenburg, Germany) or a Viewlux (Perkin-Elmer). […]"}
{"smiles": "CCc1c(C)nc2cc(-c3ccccc3)c(-c3ccc(C4(N)CCC4)cc3)nn12", "note": "[Example 13-0, 1-[4-(3-Ethyl-2-methyl-7-phenyl-imidazo[1,2-b]pyridazin-6-yl)-phenyl]-cyclobutylamine]", "values": [{"measurement": "IC50", "value": 20, "unit": "µM"}]}
